From paper PMC5566391

Protein sequences, listed by entry. Tags and fused reporters are not part of them. Lines headed by an entry give the natural chain unless they say otherwise; changes in a name come on top.
UniProt P50591: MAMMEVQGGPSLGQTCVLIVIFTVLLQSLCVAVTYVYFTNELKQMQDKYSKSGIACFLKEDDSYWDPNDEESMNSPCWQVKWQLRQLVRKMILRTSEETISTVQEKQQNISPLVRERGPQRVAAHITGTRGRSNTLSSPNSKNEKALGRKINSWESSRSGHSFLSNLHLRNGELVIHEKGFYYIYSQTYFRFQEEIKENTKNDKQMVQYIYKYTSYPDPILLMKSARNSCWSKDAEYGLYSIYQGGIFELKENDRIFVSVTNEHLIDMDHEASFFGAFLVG

Target: soluble DR5-Fc fusion protein (human) (UniProt O14763)
Assay: BLI; biotinylated DR5-Fc (10 µg/mL) immobilised on streptavidin biosensors for 300 s; analytes in serial dilutions 15.4 nM-123.5 nM; dissociation in PBS; 25 °C, PBS; ForteBio Octet

Kd: < 1 pM | koff: < 1e-07 s⁻¹ | kon: 81000 M⁻¹ s⁻¹
Substance: TRAIL-Trimer fusion protein (from UniProt P50591 39-281) (ligand)
